# In ChEMBL document CHEMBL1136895, “NO donors. Part 18: Bioactive metabolites of GTN and PETN--synthesis and vasorelaxant properties” (2009):
# Test: Vasorelaxant activity in pig pulmonary artery by organ bath experiment
compound,measurement,value
O=[N+]([O-])OCC(CO[N+](=O)[O-])O[N+](=O)[O-],EC50,27 nM

# Some compounds may have been tested in ways that are not shown here.
